From patent US12409171B2, “Pharmaceutically active pyrazolo-pyridone modulators of DCN1/2-mediated cullin neddylation” (UNIVERSITY OF KENTUCKY RESEARCH FOUNDATION, priority 2019, dated 2025) come the findings set out here.

The chains behind the UniProt entries cited, without tags or fusion partners.
UniProt Q96GG9, whole entry: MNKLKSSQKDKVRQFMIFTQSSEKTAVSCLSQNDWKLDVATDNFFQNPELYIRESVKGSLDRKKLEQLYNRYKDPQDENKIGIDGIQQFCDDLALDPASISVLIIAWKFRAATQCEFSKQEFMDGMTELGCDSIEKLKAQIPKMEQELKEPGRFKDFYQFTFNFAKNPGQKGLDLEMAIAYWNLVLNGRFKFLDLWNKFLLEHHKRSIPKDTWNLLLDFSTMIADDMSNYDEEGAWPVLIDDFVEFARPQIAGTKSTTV

The test addresses DCN1 (Homo sapiens (Human), UniProt Q96GG9). Kind of test: TR-FRET binding assay (biotin-DCN1 / Ac-UBE2M12-AlexaFluor488). The conditions noted are these: diastereomer on branched alkyl group. (In general: Time-resolved FRET reads energy transfer from a long-lived donor to a nearby acceptor.)
The mark [1] stands for this setting: read-out: IC50 (μM) (TR-FRET), TLC-down diastereomer, TLC-down.
Setting [2] is: read-out: IC50 (μM) (TR-FRET), TLC-up diastereomer, TLC-up.

Read-outs that look alike come from different tables or passages of the source.

As a reminder, the IC50 is the concentration at which inhibition is half-maximal. `CCC(C)n1nc(C)c2c1NC(=O)[C@@H](NC(=O)c1cccc(C)c1)[C@H]2c1ccc(F)cc1` (single isomer, unassigned): the IC50 is, setting by setting: under setting [1], 0.6 µM; under setting [2], 0.7 µM.
Regarding `CCC(C)n1nc(C)c2c1N(CC)C(=O)[C@@H](NC(=O)c1cccc(C)c1)[C@H]2c1ccc(F)cc1` (single isomer, unassigned), the IC50 reads like this: under setting [1], 0.5 µM; under setting [2], 1.2 µM.
Regarding `Cc1cccc(C(=O)N[C@@H]2C(=O)Nc3c(c(C)nn3C(C)C(F)(F)F)[C@@H]2c2ccc(F)cc2)c1` (single isomer, unassigned), the IC50 was 0.9 µM under setting [1] and 2.3 µM under setting [2].
Turning to `Cc1cccc(C(=O)N[C@@H]2C(=O)Nc3c(c(C)nn3C(C)C3CC3)[C@@H]2c2ccc(F)cc2)c1` (single isomer, unassigned), the IC50 is, setting by setting: under setting [1], 0.3 µM; under setting [2], 0.7 µM.
